{
  "source": "patent US5094723A",
  "about": "“Separation of m-xylene from p-xylene or o-xylene by extractive distillation with alcohols” (priority 1991, dated 1992)",
  "key": {"[1]": {"experiment": "Relative volatility, separation of p-xylene from m-xylene, vapor-liquid equilibrium still", "details": "* brings the m-xylene out as overhead (m-xylene to p-xylene)"}, "[2]": {"experiment": "Relative volatility, separation of m-xylene from o-xylene, vapor-liquid equilibrium still"}},
  "data": [
    {"smiles": "CC(C)CCCCCCCO", "note": "[Isodecanol]", "values": [
      {"measurement": "Relative Volatility", "setting": "[1]", "value": 1.16}
    ]},
    {"smiles": "CC(C)CCCCCCCO", "note": "[Isodecanol (EXXON), Isodecanol]", "values": [
      {"measurement": "Relative Volatility", "setting": "[1]", "value": 1.21}
    ]},
    {"smiles": "N#CCCCCC#N", "note": "[Adiponitrile]", "values": [
      {"measurement": "Relative Volatility", "setting": "[2]", "value": 1.21}
    ]},
    {"smiles": "CCCCCCCCCCO", "note": "[1-Decanol]", "values": [
      {"measurement": "Relative Volatility", "setting": "[2]", "value": 1.21},
      {"measurement": "Relative Volatility", "setting": "[1]", "value": 1.21}
    ]}
  ]
}
